Test results as given in publication PMC4926433, “Isoquercitrin Esters with Mono- or Dicarboxylic Acids: Enzymatic Preparation and Properties” (International Journal of Molecular Sciences, 2016).

Assay: Partition coefficient (log P) in octan-1-ol/phosphate buffer pH 7.4
Conditions: octan-1-ol/phosphate buffer pH 7.4, 25 °C
Procedure: The hydrophobicity of the prepared compounds was determined by the measurement of partition coefficient P in a mixture of two immiscible phases—octan-1-ol and 6.6 mM phosphate buffer pH 7.4 to simulate physiological conditions. Before the use, octan-1-ol was stirred with the buffer for 16 h at 25 °C to achieve saturation of both phases, which were then separated.
Then, 150 µL of the stock solutions were mixed with 150 µL of the respective immiscible phase in microcentrifuge tubes (1.5 mL) and stirred (750 rpm) for 2 h at 25 °C in triplicates. Phases were separated and the solute concentration in each phase was determined in 96-well microtitration plates using Sunrise™ spectrophotometer (Schoeller Instruments, Prague, Czech Republic) at 400 nm. Log P was calculated as follows: log Poct/buffer = log([A]octan-1-ol/[A]buffer).

Question: With quercetin [reference compound] as the substance, how does the “log P” value read?
Answer: 1.94
